scFv variants of Ab-14 (heavy chain) against a SARS-CoV-2 spike peptide

Antigen: PDVDLGDISGINAS, a 14-residue peptide of the SARS-CoV-2 spike HR2 region.

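The starting antibody came from a phage panning campaign against this peptide. AAYL49 was designed without a model: most single CDR substitutions and a random sample of double and triple ones. In AlphaSeq, yeast of one mating type display the scFv and yeast of the other type display the target. The frequency of each diploid, read from paired DNA barcodes, reflects how well the two displayed proteins bind. A regression on co-assayed BCL2-family reference pairs converts the normalised counts of each replicate to an apparent Kd. The assay was run in three technical replicates.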

Parent scFv Ab-14: VH joined to VL by a (GGGGS)3 linker. Changes lie in the heavy chain CDRs alone.
VH: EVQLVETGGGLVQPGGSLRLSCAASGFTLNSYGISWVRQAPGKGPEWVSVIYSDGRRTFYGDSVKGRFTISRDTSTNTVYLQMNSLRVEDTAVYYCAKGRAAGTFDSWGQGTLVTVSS
VL: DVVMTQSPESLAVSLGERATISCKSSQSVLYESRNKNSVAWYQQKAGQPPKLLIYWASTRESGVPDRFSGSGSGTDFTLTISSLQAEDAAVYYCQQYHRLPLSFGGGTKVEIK

Variants are written as CDR1, CDR2 and CDR3 of the heavy chain (limits as in the source). Parent: GFTLNSYGIS, VIYSDGRRTFYGDSVK, GRAAGTFDS. Numbers give log10(Kd / nM), so 0 is 1 nM and 3 is 1 µM. Smaller is tighter. Where no diploid with the target was found in that replicate, the entry reads "ND": below detection, most likely a poor binder, though not proof of it.

CDR-H1 | CDR-H2 | CDR-H3 | log10 Kd, replicates
NFTLNSYGSS | VIYSDGRRTFYGDSVK | GRAAGTFDS | 3.06 2.52 3.54
GFTLHSYDIS | VIYSDGRRTFYGKSVK | GRAAGTFDS | ND ND ND
GFTLNSYGIS | VIYSDGRRTFYGDSVK | GDPWGTFDS | ND ND ND
GFTLNSYPIS | VIYSDGRRTFYGDSVK | GRAAGTGDS | ND 4.01 ND
GFTLNSYGIY | VIYSDGRRTFYGDSVK | GSAAGNFDS | ND 3.62 ND
WFTLNSYGIS | VIYSDGRRTFRGHSVK | GRAAGTFDS | ND ND ND
GFTLNSYGIS | VIYSDGRETFYGDSVK | GRARGTMDS | ND ND ND
GFTLNSYGIS | VIYSDGRRTFDGDEVK | GRAAGTFDS | ND ND 4.19
GQTLNSYGIS | VIYSDGCRTFYGDSVK | GRAMGTFDS | ND ND 5.74
GFTLNMYGIS | MIYSDCRRTFYGDSVK | GRAAGTFDS | ND ND ND
GFTLNSFGIS | VIYSDGRRKNYGDSVK | GRAAGTFDS | 4.05 3.81 ND
MFTLNSWGIS | VIYSDGRRTFYGDSVN | GRAAGTFDS | 4.32 ND ND
GFTLNSYDIS | VIYSTGRRTFYGDSIK | GRAAGTFDS | 5.41 4.19 4.51
GFTLNSYGIS | VIYSDGRRTFYVDSVL | GRMAGTFDS | 2.13 2.24 3.54
GFTLNSYGIS | VIYSGGRRFFYGDSVT | GRAAGTFDS | ND ND ND
GFTLNSYGIS | VIYSDGRVTFYGLSVK | GCAAGTFDS | ND 3.44 ND
GFTLNSSIIS | VIYSDGRRTFYGDSVK | GRAAGTLDS | 3.82 ND ND
GFTSNSYGIS | VIYSDGRRTFYGDSVK | GRAASTFDA | 3.62 2.45 ND
GFTLNSYGIE | VIYSDGRRTFYGDSVH | GRAATTFDS | ND 3.40 ND
GFTLNSYGIS | VIYSDQRRTFYGDGVK | GRAAGTNDS | ND 2.99 ND
GFTLSSYGIS | VIYSDGRRPFYGDSVP | GRAAGTFDS | ND ND ND
GFTLNSYGIS | VIMSNGRRTFYGDSVK | GRAAGTPDS | 4.30 ND 6.15
GFTLNSYEIS | VIYQDGRRTFYGDSVA | GRAAGTFDS | ND 4.28 ND
GFTLNSEGIS | VIYSDGRRTFYGDSVK | GRAAGTLFS | ND ND 4.34
GDTLRSYGIS | RIYSDGRRTFYGDSVK | GRAAGTFDS | 4.47 ND ND
GFTLNSYGIS | VIYSDGRRTFYGDSKV | GRAAFTFDS | ND ND ND
GATLNSYGIS | MIYSDGFRTFYGDSVK | GRAAGTFDS | ND 3.16 ND
GFDLNSYGIS | VIYSDGRRPFYGDSVK | GRAAWTFDS | ND ND ND
GFTLNSYGIS | VIYSWGRRTFYGDSVQ | GRAAWTFDS | 3.83 4.06 ND
GFTHNSYGIS | VIFSDGRRTFYGDSVK | GWAAGTFDS | 4.40 ND ND
GFTLNSYGRS | VIYSDGRRTFYSDSVK | GRAAGTFDC | 4.11 ND ND
GFTLNSYGIS | VMYVDGRRTFNGDSVK | GRAAGTFDS | ND 2.49 ND
GFTMNSYGIS | NIYSDGRRTFYGDSVK | GRAAGTEDS | ND 3.84 ND
GFTLNSYGYW | VIYSDGRRTFYGDSVK | GWAAGTFDS | 4.03 5.38 5.69
GFTLNSYGIS | GIYSDGRRTFYLDSVK | CRAAGTFDS | ND 4.04 ND
QFTLNSYGIS | VIYPDGRRTFYGDSVK | YRAAGTFDS | ND ND ND
GFHLRSYGNS | VIYSDGRRTFYGDSVK | GRAAGTFDS | ND ND ND
GFTLNSYGVS | VIYSDGRATFYGDSVK | GRAAGTVDS | ND ND ND
GFRLNSYGIA | VIYLDGRRTFYGDSVK | GRAAGTFDS | 4.00 ND ND
RRTLNSYGIS | VIYSDGRRTFYGDSVK | GRAAGTFDI | ND ND ND
GFTLNSYGIS | VPYSDGRHTFYGDSVK | GRKAGTFDS | ND ND 3.45
GFTLNSYGIG | VQYSDGRRTFYGDSVD | GRAAGTFDS | ND ND ND
GFTLNSYGIS | VIYSDGRRTFYGDSVR | GRAAGTHDS | ND ND ND

Picked from the list: the 4 lowest averages where every replicate gave a value.

CDR-H1 | CDR-H2 | CDR-H3 | log10 Kd, replicates
GFTLNSYGIS | VIYSDGRRTFYVDSVL | GRMAGTFDS | 2.13 2.24 3.54
NFTLNSYGSS | VIYSDGRRTFYGDSVK | GRAAGTFDS | 3.06 2.52 3.54
GFTLNSYDIS | VIYSTGRRTFYGDSIK | GRAAGTFDS | 5.41 4.19 4.51
GFTLNSYGYW | VIYSDGRRTFYGDSVK | GWAAGTFDS | 4.03 5.38 5.69

Empty control strains, which show no peptide, gave a signal in 15% of pairings with library AAYL49; the median was 4.06 and 95% of these signals were weaker than 2.83. No background was subtracted. In this assay the parent's reference entry averaged 0.65; its copy inside this library read 4.11 (one replicate of three).

From the AlphaSeq antibody data of Engelhart et al. 2022 (doi:10.1038/s41597-022-01779-4), copy in the FLAb collection.